The source of these data is ChEMBL document CHEMBL6109111, “Structure-activity relationship analysis of meta-substituted N-cyclopropylmethyl-nornepenthones with mixed KOR/MOR activities” (Eur J Med Chem, 2025).

For experiment [1], the target named is T1, Kappa-type opioid receptor (Homo sapiens, UniProt P41145). The experiment in a line: Displacement of [3H]-U69593 from human KOR expressed in CHO cell membrane assessed as inhibition constant incubated for 30 mins by liquid scintillation counting method. On the technique in general: Loss of bound radioactivity is the signal in a displacement assay; it reports binding, not function.

The target in experiment [2] is Delta-type opioid receptor (Rattus norvegicus, UniProt P33533). The experiment in a line: Displacement of [3H]-DPDPE from rat DOR expressed in CHO cell membrane assessed as inhibition constant incubated for 30 mins by liquid scintillation counting method.
Experiment [3] has as its target T2, Mu-type opioid receptor (Rattus norvegicus, UniProt P33535). The experiment in a line: Displacement of [3H]-DAMGO from rat MOR expressed in CHO cell membrane assessed as inhibition constant incubated for 30 mins by liquid scintillation counting method.
For experiment [4], the target named is T1, Kappa-type opioid receptor. The experiment in a line: Agonist activity at human KOR expressed in HEK293 cells coexpressing Glo-Sensor22F assessed as inhibition of cAMP accumulation incubated for 15 mins by Microplate reader assay.
The target in experiment [5] is T2, Mu-type opioid receptor. The experiment in a line: Antagonist activity at rat MOR expressed in HEK293 cells coexpressing Glo-Sensor22F assessed as inhibition of forskolin-induced cAMP accumulation incubated for 15 mins by Microplate reader assay. On the technique in general: Changes in cAMP serve as a functional read-out for many G protein-coupled receptors.

`COc1ccc2c3c1O[C@H]1[C@@]4(OC)C=C[C@@]5(C[C@@H]4C(=O)c4cccc(NC(=O)c6ccc(Cl)c(Cl)c6)c4)[C@@H](C2)N(CC2CC2)CC[C@]315`: the results for the Ki (in experiment [1]; in experiment [2]; on Mu-type opioid receptor [3]) were 425 nM, more than 10000 nM and 662 nM, respectively.
`COc1ccc2c3c1O[C@H]1[C@@]4(OC)C=C[C@@]5(C[C@@H]4C(=O)c4ccccc4)[C@@H](C2)N(CC2CC2)CC[C@]315`: the Ki (in general, the dissociation constant of the complex between target and ligand, obtained from inhibition or displacement) in experiment [2] came out at 774 nM; at Mu-type opioid receptor [3], 130 nM.
Regarding `COc1ccc2c3c1O[C@H]1[C@@]4(OC)C=C[C@@]5(C[C@@H]4C(=O)c4cccc(NC(=O)c6ccc(C)c(C)c6)c4)[C@@H](C2)N(CC2CC2)CC[C@]315`, the Ki in experiment [1] amounted to 46 nM; in experiment [2] it was 3090 nM; at Mu-type opioid receptor [3] it was 37.9 nM.
Turning to `COc1cccc(C(=O)Nc2cccc(C(=O)[C@H]3C[C@@]45C=C[C@]3(OC)[C@@H]3Oc6c(OC)ccc7c6[C@@]34CCN(CC3CC3)[C@@H]5C7)c2)c1`, the Ki was determined as 27 nM in experiment [1], 274 nM in experiment [2] and 528 nM at Mu-type opioid receptor [3].
Taken in the same sequence, the figures for `COc1ccc2c3c1O[C@H]1[C@@]4(OC)C=C[C@@]5(C[C@@H]4C(=O)c4cccc(NCc6ccccc6)c4)[C@@H](C2)N(CC2CC2)CC[C@]315` were 208 nM, 2600 nM and 100 nM.
Taken in the same sequence, the figures for `COc1ccc2c3c1O[C@H]1[C@@]4(OC)C=C[C@@]5(C[C@@H]4C(=O)c4cccc(NC(=O)Cc6ccccc6)c4)[C@@H](C2)N(CC2CC2)CC[C@]315` were 43.8 nM, 208 nM and 40.1 nM.
Regarding `COc1ccc(C(=O)Nc2cccc(C(=O)[C@H]3C[C@@]45C=C[C@]3(OC)[C@@H]3Oc6c(OC)ccc7c6[C@@]34CCN(CC3CC3)[C@@H]5C7)c2)cc1`, the inhibition constant (Ki) stood at 32.9 nM in experiment [1], 853 nM in experiment [2] and 438 nM at Mu-type opioid receptor [3].
Take `COc1ccc2c3c1O[C@H]1[C@@]4(OC)C=C[C@@]5(C[C@@H]4C(=O)c4cccc(NC(=O)c6ccccc6)c4)[C@@H](C2)N(CC2CC2)CC[C@]315`: the results for the Ki (in experiment [1]; in experiment [2]; on Mu-type opioid receptor [3]) were 8.5 nM, 1050 nM and 41.3 nM, respectively. The EC50 (usually the concentration needed to bring the measured effect to its halfway point) in experiment [4] turned out to be 3.1 nM. The IC50 (usually the concentration at which inhibition is half-maximal) on Mu-type opioid receptor [5] worked out at 379 nM.
Take `COc1ccc2c3c1O[C@H]1[C@@]4(OC)C=C[C@@]5(C[C@@H]4C(=O)c4cccc(NC(=O)OCC(C)C)c4)[C@@H](C2)N(CC2CC2)CC[C@]315`: the Ki in experiment [1] worked out at 36.2 nM; in experiment [2], 306 nM; at Mu-type opioid receptor [3], 99.8 nM.
For `COc1ccc2c3c1O[C@H]1[C@@]4(OC)C=C[C@@]5(C[C@@H]4C(=O)c4cccc(NC(=O)OCc6ccccc6)c4)[C@@H](C2)N(CC2CC2)CC[C@]315` the same measures were 10.2 nM, 238 nM and 81.9 nM.
Taken in the same sequence, the figures for `COc1ccc2c3c1O[C@H]1[C@@]4(OC)C=C[C@@]5(C[C@@H]4C(=O)c4cccc(NC(=O)c6cnn(C)c6)c4)[C@@H](C2)N(CC2CC2)CC[C@]315` were 6.9 nM, 209 nM and 75.6 nM.
Taken in the same sequence, the figures for `COc1ccc2c3c1O[C@H]1[C@@]4(OC)C=C[C@@]5(C[C@@H]4C(=O)c4cccc(Nc6ccccc6)c4)[C@@H](C2)N(CC2CC2)CC[C@]315` were 2320 nM, 6870 nM and 174 nM.
